Only a part is listed here, and it is no random draw. Active and inactive are the calls of the source. Cut-off read from the data, not from the text of the source: active = activity change below about -30%; inconclusive = mostly about -25% to -30%; inactive = weaker than that.

Activity change data for 28 compounds are collected here from PubChem BioAssay AID1347041 (National Center for Advancing Translational Sciences (NCATS), 2019).

For the assay, the target named is L-lactate dehydrogenase A chain (Homo sapiens) (UniProt P00338). Briefly: qHTS assay for inhibitors of human lactate dehydrogenase.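 Note: values are at about 110 or 230 µM; plate controls were DMSO wells for no effect and wells without enzyme for full effect.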 Conditions: purified LDHA, NADH/diaphorase-resazurin fluorescence; hits give low values. The method in brief:
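Resorufin fluorescence (ex540/em590), read at 0 and 20 min after diaphorase/resazurin addition, reports the NADH left after a 5 min room-temperature reaction of 2 nM human LDH5 with 0.06 mM NADH and 0.2 mM pyruvate.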
As for `Cc1nn(-c2ccccc2)c2c1P(=O)(N1CCOCC1)N(C)C(c1ccccc1)=N2` (stereo not drawn), the activity change is inactive: -5.17%.
The value for `COc1cc([N+](=O)[O-])ccc1[N+](=O)[O-]` was inactive: 1.17%; that for `CC1CCC(C(C)C)C(OP(=O)(Nc2ccccn2)c2ccccc2)C1` (stereo not drawn) was inactive: 1.57%; that for `Cc1ccc(C(=O)OC2CN3CCC2CC3)cc1` (stereo not drawn) was inactive: -1.38%.
Then `O=C(/C=C/c1ccccc1)OC1CN2CCC1CC2` (stereo not drawn), with inactive: -5.75%; and `CCCC1OP(=O)(Nc2ccccc2)OCC1CC` (stereo not drawn), with inactive: -7.9%; and `CN(C)C1(CNC(=O)c2ccc(S(C)(=O)=O)cc2)CCCCC1`, with inactive: -8.96%.
On to `O=[N+]([O-])c1ccc(O)c(/C=N/Nc2ccc([N+](=O)[O-])cc2[N+](=O)[O-])c1`, for which the activity change was inactive: -1.39%.
The value for `O=[N+]([O-])c1ncn(CCn2cnc([N+](=O)[O-])n2)n1` was inactive: 0.67%; that for `CC(=O)NC(SC(=S)N(C)C)C(Cl)(Cl)Cl` (stereo not drawn) was inactive: -1.62%.
The value for `O=[As](O)(c1ccccc1)c1ccc(O)cc1` was inactive: 0.617%; that for `Nc1ccc([As](=O)(O)c2ccc([N+](=O)[O-])cc2)cc1` was inactive: -3.13%.
The value for `C(Cc1nn[nH]n1)Cc1nn[nH]n1` was inactive: -14.1%; that for `O=C(OC1CN2CCC1CC2)c1cccc(Cl)c1` (stereo not drawn) was inactive: -1.04%; that for `Nc1ccc(CCCCOc2ccccc2)cc1` was inactive: -1.31%.
Turning to `COc1ccc(N)c([N+](=O)[O-])c1[N+](=O)[O-]`, the activity change is inactive: 9.68%.
Then `O=P(Nc1ccccn1)(c1ccc(Br)cc1)c1ccc(Br)cc1`, with inactive: 1.49%.
Take `CN(C)C1(CNC(=O)c2ccc(Cl)c(S(N)(=O)=O)c2)CCCCC1`: the activity change was inactive: -4.53%.
For `O=P(Nc1nc2ccccc2s1)(c1ccccc1)c1ccccc1`, the activity change is inactive: -2.75%.
Then `C[C@H]1OP(=O)(Oc2ccccc2)[C@H](O)[C@H](O)[C@H]1N=[N+]=[N-]` (stereo partly drawn), with inactive: 0.517%; and `CC(C)C(=O)NC(Sc1ccccc1)C(Cl)(Cl)Cl` (stereo not drawn), with inactive: 0.319%.
With `O=P(Nc1nccs1)(c1ccccc1)c1ccccc1`, the activity change is inactive: -3.53%.
The value for `N#Cc1c(-c2ccc(-c3no[n+]([O-])c3C#N)s2)no[n+]1[O-]` was inactive: -0.014%.
The value for `c1nnnn1CCn1cnnn1` was inactive: -5.36%; that for `N#C/C(=C\c1ccc(N(CCBr)CCBr)cc1)C(N)=O` was inactive: 0.207%; that for `CC(=O)c1ccc(N2CC2c2ccncc2)cc1` (stereo not drawn) was inactive: -5.84%.
With `COC(=O)C1(C)COP(=O)(NCc2ccccc2)OC1` (stereo not drawn), the activity change is inactive: -6.33%.
Then `Cc1ccccc1CN(C)C(=O)COC(=O)C(O)(c1ccccc1)c1ccccc1`, with inactive: 0.166%.
